According to US20210085796A1, “ANTICANCER DRUGS AND METHODS OF MAKING AND USING SAME” (YALE UNIVERSITY, priority 2017, published 2021):

Key:
[1] = test system: MDA-MB-231 breast cancer cells; experiment: pH-dependent cell growth inhibition (CellTiter-Glo); type: cell-based, Human; conditions: 6 hours treatment, then 72 hours growth
Experimental: FIG. 6 depicts pH-dependent cell growth inhibition of MDA-MB-231 breast cancer cells in culture, treated transiently with Drug (in this case doxorubicin HCl) or various prodrugs of the invention. Cells treated for 6 hours at pH 7.4 (normal physiological pH, X traces) or pH 6.2 (acidic solid tumor pH, Y traces) were subsequently allowed to grow in normal growth medium for 72 hours, then cell viability was evaluated using the CellTiter-Glo assay kit (Promega). Normalized percent cell growth inhibition is plotted on the left side of each panel and IC50 values reported at each pH from non-linear regression analysis.
In order to evaluate pH-dependent activity, treatments are performed at atypical cell culture conditions. […] Several cell lines have been evaluated using this method and for each, cell seeding density and treatment duration is independently experimentally determined. Each experiment is normalized to sham and complete activity controls for each pH condition.
Human MDA-MB-231 breast cancer cells seeded at low density on tissue culture treated 384-well plates, allowed to adhere and grow in serum-supplemented growth medium for 24 hours, then treated under pH-controlled conditions for 6 hours, and finally washed and grown in fresh growth media for 72 hours were assessed for cell survival using the CellTiter-Glo assay system (Promega) (FIG. 6).

[2] = intravenous injection; cited from earlier work

For `COc1cccc2c1C(=O)c1c(O)c3c(c(O)c1C2=O)C[C@@](O)(C(=O)CO)C[C@@H]3O[C@H]1C[C@H](N)[C@H](O)[C@H](C)O1` [Doxorubicin, reference compound], which “fold lower IC50 value in cells treated at pH 7.4 than at pH 6.2” value [1] is on record?
Its value is > 15 fold.

And the “t1/2 of distribution from the blood into tissues” value [2]?
The value was ~5 min.
